The values that follow come from patent US20050164951A1, “Inhibitors for the soluble epoxide hydrolase” (The Regents of the University of California, priority 2003, published 2005).

The chains behind the UniProt entries cited, without tags or fusion partners. Where a name states a change or a piece, a line headed by the entry shows the natural chain unless it says otherwise.
UniProt P34914: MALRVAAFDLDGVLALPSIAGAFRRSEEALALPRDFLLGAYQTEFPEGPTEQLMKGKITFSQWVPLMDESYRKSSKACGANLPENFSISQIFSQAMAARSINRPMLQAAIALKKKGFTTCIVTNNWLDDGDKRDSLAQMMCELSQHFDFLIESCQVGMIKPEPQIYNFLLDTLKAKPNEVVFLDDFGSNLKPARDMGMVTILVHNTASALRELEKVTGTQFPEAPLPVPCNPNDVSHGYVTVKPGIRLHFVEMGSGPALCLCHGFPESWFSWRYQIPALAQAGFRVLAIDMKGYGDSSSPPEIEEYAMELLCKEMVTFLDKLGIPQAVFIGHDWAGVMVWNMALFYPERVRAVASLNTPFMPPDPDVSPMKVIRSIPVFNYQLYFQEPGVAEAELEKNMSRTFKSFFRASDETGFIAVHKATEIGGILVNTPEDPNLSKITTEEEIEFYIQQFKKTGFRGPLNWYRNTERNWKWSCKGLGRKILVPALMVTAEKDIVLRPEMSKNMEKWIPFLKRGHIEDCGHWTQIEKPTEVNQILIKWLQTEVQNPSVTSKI
UniProt P34913, whole entry: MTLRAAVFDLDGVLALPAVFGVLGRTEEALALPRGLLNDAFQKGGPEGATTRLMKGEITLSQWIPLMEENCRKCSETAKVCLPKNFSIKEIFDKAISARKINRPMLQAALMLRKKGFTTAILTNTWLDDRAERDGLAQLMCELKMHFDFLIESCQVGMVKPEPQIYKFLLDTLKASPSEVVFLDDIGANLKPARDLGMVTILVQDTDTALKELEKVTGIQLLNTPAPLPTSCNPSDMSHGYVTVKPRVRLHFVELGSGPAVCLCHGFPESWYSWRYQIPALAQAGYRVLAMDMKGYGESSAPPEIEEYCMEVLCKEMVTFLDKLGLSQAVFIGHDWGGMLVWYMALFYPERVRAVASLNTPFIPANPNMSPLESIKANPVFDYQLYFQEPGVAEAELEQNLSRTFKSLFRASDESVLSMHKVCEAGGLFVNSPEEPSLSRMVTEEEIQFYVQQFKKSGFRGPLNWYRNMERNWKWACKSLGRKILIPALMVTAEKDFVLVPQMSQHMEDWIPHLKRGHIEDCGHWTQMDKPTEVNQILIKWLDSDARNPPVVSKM

One data set relates to mouse and human sEH. The data set can be described thus: sEH IC50 assay, comparisons of the text made for both enzymes or without naming the enzyme. The class given is biochemical.
Another data set has as its target T1, mouse sEH (Mus musculus, UniProt P34914).
T1 construct: made in house; host or cells: baculovirus expression system
Briefly: Inhibition of recombinant mouse sEH, IC50 assay with 4-nitrophenyl-trans-2,3-epoxy-3-phenylpropyl carbonate as substrate. The class given is biochemical.

Another data set has as its target human sEH (Homo sapiens, UniProt P34913). The data set can be described thus: Inhibition of recombinant human sEH, IC50 assay with 4-nitrophenyl-trans-2,3-epoxy-3-phenylpropyl carbonate as substrate.
A short description of data set [1]: Pharmacokinetics after oral gavage in mice. Conditions: 5 mg/kg orally.
Where [2] appears, read: Table 4, […] enzyme, 5 min preincubation, pH 7.4, 30° C., means ± SD, read-out: IC50 (μM) Mouse sEH.
Where [3] appears, read: read-out: IC50 (μM) Mouse sEH, Table 4, […] enzyme, 5 min preincubation, pH 7.4, 30° C., means ± SD.
Where [4] appears, read: read-out: IC50 (μM) Human sEH, pH 7.4.

Read-outs that look alike come from different tables or passages of the source.

As to `O=C(O)CCCCCCCCCCCNC(=O)NC12CC3CC(CC(C3)C1)C2` [Compound 687, 1-(1-adamantyl)-3-(12-dodecanoic acid)urea], in the data set on mouse and human sEH, the “inhibition of both the mouse and human enzymes” value was “excellent inhibitor”.

In the case of `C=CCOC(=O)CCCCCCCCCCCNC(=O)NC12CC3CC(CC(C3)C1)C2` [Compound 781, 1-(1-Adamantyl)-3-(11-allyloxycarbonylundecyl)urea], the IC50 on mouse sEH (setting [2]) is 0.05 ± 0.01 µM.

Regarding `O=C(NCCCCCCCCCCCC(=O)OCc1ccccc1Cl)NC12CC3CC(CC(C3)C1)C2` [Compound 782, 1-(1-Adamantyl)-3-(11-(2-chlorobenzyl)oxycarbonylundecyl)urea], the results for the IC50 at mouse sEH and at human sEH were 0.1 ± 0.01 µM and 0.29 ± 0.01 µM, respectively.

Consider `CCCOC(=O)CCCCCCCCCCCNC(=O)NC12CC3CC(CC(C3)C1)C2` [Compound 783, 1-(1-Adamantyl)-3-(11-propoxycarbonylundecyl)urea], for which, at mouse sEH (setting [2]), the IC50 is 0.05 ± 0.01 µM.

With `CC(C)OC(=O)CCCCCCCCCCCNC(=O)NC12CC3CC(CC(C3)C1)C2` [Compound 785, 1-(1-Adamantyl)-3-(11-iso-propoxycarbonylundecyl)urea], the IC50 on mouse sEH (setting [3]) worked out at 0.05 ± 0.01 µM. Also, the “AUC (bioavailability), fold increase over 687” value in data set [1] is on record as “similar”.

For `O=C(NCCCCCCCCCCCC(=O)OCc1cccc2ccccc12)NC12CC3CC(CC(C3)C1)C2` [Compound 787, 1-(1-Adamantyl)-3-(11-(1-naphthyl)methoxycarbonylundecyl)urea], the values for the IC50 on mouse sEH and on human sEH were 0.09 ± 0.01 µM and 0.21 ± 0.01 µM, respectively.

For `C#CCOC(=O)CCCCCCCCCCCNC(=O)NC12CC3CC(CC(C3)C1)C2` [Compound 788, 1-(1-Adamantyl)-3-(11-propagyloxycarbonylundecyl)urea], the IC50 on mouse sEH (setting [2]) was 0.05 ± 0.01 µM.

In the case of `CC(C)NC(=O)CCCCCCCCCCCNC(=O)NC12CC3CC(CC(C3)C1)C2` [Compound 793, 1-(1-Adamantyl)-3-(11-isopropylaminocarbonylundecyl)urea], the IC50 at human sEH (setting [4]) was found to be 0.1 ± 0.01 µM.

As for `CCCCOC(=O)CCCCCCCCCCCNC(=O)NC12CC3CC(CC(C3)C1)C2` [Compound 800, 1-(1-Adamantyl)-3-(11-butoxycarbonylundecyl)urea], the IC50 at mouse sEH (setting [2]) is 0.05 ± 0.01 µM; at human sEH (setting [4]), 0.1 ± 0.01 µM.

`CC(C)(C)OC(=O)CCCCCCCCCCCNC(=O)NC12CC3CC(CC(C3)C1)C2` [Compound 801]: the IC50 on mouse sEH (setting [2]) came out at 0.05 ± 0.01 µM; on human sEH (setting [4]), 0.1 ± 0.01 µM.

As for `CCC(C)OC(=O)CCCCCCCCCCCNC(=O)NC12CC3CC(CC(C3)C1)C2` (stereo not drawn) [Compound 802, 1-(1-Adamantyl)-3-(11-sec-butoxycarbonylundecyl)urea], the IC50 on mouse sEH (setting [2]) was 0.05 ± 0.01 µM. For the same compound, the “AUC (bioavailability), fold increase over 687” value in data set [1] is “similar”.

In the case of `CC(C)COC(=O)CCCCCCCCCCCNC(=O)NC12CC3CC(CC(C3)C1)C2` [Compound 803, 1-(1-Adamantyl)-3-(11-isobutoxycarbonylundecyl)urea], the IC50 on mouse sEH (setting [3]) came to 0.05 ± 0.01 µM.

As usually defined, the IC50 is the concentration needed to halve the response being measured.
